Patent US11401286B2 (Tetra Discovery Partners, LLC, priority 2012, dated 2022)

target: human PDE4D7 containing UCR1 activating mutation S54D (PDE4D7*) (Homo sapiens (Human), UniProt Q08499, S129D); experiment: biochemical

Structure (SMILES)	pIC50
NC(=O)Cc1ccc(Cc2nc(-c3cccc(Cl)c3)nc3c2CCC3)cc1 [Example 68, 2-(4-((2-(3-chlorophenyl)-6,7-dihydro-5H-cyclopenta[d]pyrimidin-4-yl)methyl)phenyl)acetamide]	> 6.00
O=S1(=O)CCCc2nc(C3CCCC3)nc(Nc3ccc(CCCO)cc3)c21 [Example 287, 2-Cyclopentyl-4-((4-(3-hydroxypropyl)phenyl)amino)-7,8-dihydro-6H-thiopyrano[3,2-d]pyrimidine 5,5-dioxide]	> 6.00
OB1OCc2cc(Nc3nc(-c4ccc(Cl)s4)nc4c3CCC4)ccc21 [Example 293, 2-(5-Chloro-2-thienyl)-N-(1-hydroxy-3H-2,1-benzoxaborol-5-yl)-6,7-dihydro-5H-cyclopenta[d]pyrimidin-4-amine]	> 6.00
Clc1cccc(-c2nc3c(c(Nc4ccc(Cc5nn[nH]n5)cc4)n2)SCCC3)c1 [Example 313, 2-(3-Chlorophenyl)-N-[4-(2H-tetrazol-5-ylmethyl)phenyl]-7,8-dihydro-6H-thiopyrano[3,2-d]pyrimidin-4-amine]	> 6.00
Clc1ccc(-c2nc(Nc3ccc(Cc4nnn[nH]4)cc3)cc(C3CC3)n2)s1 [Example 298, 2-(5-Chloro-2-thienyl)-6-cyclopropyl-N-[4-(1H-tetrazol-5-ylmethyl)phenyl]pyrimidin-4-amine]	> 6.00
CCc1nc(Nc2ccc(C(C)C(=O)O)cc2)nc(-c2cccc(Cl)c2)n1 (stereo not shown) [Example 59, 2-(4-(4-(3-chlorophenyl)-6-ethyl-1,3,5-triazin-2-ylamino)phenyl)propanoic acid]	> 6.00
N#CNC(=O)Cc1ccc(Nc2nc(-c3cccc(Cl)c3)nc3c2SCCC3)cc1 [Example 314, 2-[4-[[2-(3-Chlorophenyl)-7,8-dihydro-6H-thiopyrano[3,2-d]pyrimidin-4-yl]amino]phenyl]-N-cyano-acetamide]	> 6.00
Cc1ccc(C(=O)c2nc(-c3cccc(Cl)c3)nc3c2CCC3)cc1 [Example 70, (2-(3-Chlorophenyl)-6,7-dihydro-5H-cyclopenta[d]pyrimidin-4-yl)(p-tolyl)methanone]	< 6.00
O=C(O)CCc1ccc(Nc2nc(-c3ccc(Cl)s3)nc3c2CCC3)cc1 [Example 15, 3-[4-[[2-(5-Chloro-2-thienyl)-6,7-dihydro-5H-cyclopenta[d]pyrimidin-4-yl]amino]phenyl]propanoic acid]	> 6.00
OCCc1ccc(Nc2nc(C3CCCC3)nc3c2SCCC3)cc1 [Example 283, 2-(4-((2-Cyclopentyl-7,8-dihydro-6H-thiopyrano[3,2-d]pyrimidin-4-yl)amino)phenyl)ethanol]	> 6.00
OCCc1ccc(Nc2nc(-c3cccc(Cl)c3)nc3c2CCCC3)cc1 [Example 235, 2-(4-((2-(3-Chlorophenyl)-5,6,7,8-tetrahydroquinazolin-4-yl)amino)phenyl)ethanol]	> 6.00
OB1OCc2cc(Nc3nc(-c4ccc(Cl)cc4)nc4c3CCC4)ccc21 [Example 295, 2-(4-Chlorophenyl)-N-(1-hydroxy-3H-2,1-benzoxaborol-5-yl)-6,7-dihydro-5H-cyclopenta[d]pyrimidin-4-amine]	> 6.00
N#CCc1ccc(Nc2nc(-c3cccc(Cl)c3)nc3c2CCC3)cc1 [Example 19, 2-[4-[[2-(3-chlorophenyl)-6,7-dihydro-5H-cyclopenta[d]pyrimidin-4-yl]amino]phenyl]acetonitrile]	< 6.00
CCc1nc(Nc2ccc(C(N)=O)cc2)nc(-c2cccc(Cl)c2)n1 [Example 62, 4-(4-(3-chlorophenyl)-6-ethyl-1,3,5-triazin-2-ylamino)benzamide]	> 6.00
O=C1NCCN1c1ccc(Nc2nc(-c3cccc(Cl)c3)nc(C3CC3)n2)cc1 [Example 53, 1-(4-((4-(3-chlorophenyl)-6-cyclopropyl-1,3,5-triazin-2-yl)amino)phenyl)imidazolidin-2-one]	< 6.00
O=C1CCC(NC2=NC(C3CC3)NC(c3cccc(Cl)c3)=N2)CN1 (stereo not shown) [Example 49, 5-((6-(3-chlorophenyl)-4-cyclopropyl-4,5-dihydro-1,3,5-triazin-2-yl)amino)piperidin-2-one]	< 6.00
NC(=O)Cc1ccc(Nc2nc(C3CCCC3)nc3c2S(=O)(=O)CCC3)cc1 [Example 286, 2-(4-((2-cyclopentyl-5,5-dioxido-7,8-dihydro-6H-thiopyrano[3,2-d]pyrimidin-4-yl)amino)phenyl)acetamide]	> 6.00
NC(=O)Cc1ccc(Nc2cc(C3CC3)nc(-c3cccc(Cl)c3)n2)nc1 [Example 212, 2-(6-((2-(3-Chlorophenyl)-6-cyclopropylpyrimidin-4-yl)amino)pyridin-3-yl)acetamide]	< 6.00
CCc1nc(Nc2ccc(CC(N)=O)cc2)nc(-c2cccc(Cl)c2)n1 [Example 57, 2-(4-(4-(3-chlorophenyl)-6-ethyl-1,3,5-triazin-2-ylamino)phenyl)acetamide]	> 6.00
O=C(O)c1ccc(Nc2nc(-c3cccc(Cl)c3)nc(C3CC3)n2)cc1 [Example 41, 4-((4-(3-chlorophenyl)-6-cyclopropyl-1,3,5-triazin-2-yl)amino)benzoic acid]	> 6.00
Clc1cccc(-c2nc3c(c(Nc4ccc(-c5nnn[nH]5)cc4)n2)CCC3)c1 [Example 75, 2-(3-Chlorophenyl)-N-[4-(1H-tetrazol-5-yl)phenyl]-6,7-dihydro-5H-cyclopenta[d]pyrimidin-4-amine]	> 6.00
O=C(Cc1ccc(Nc2cc(C3CC3)nc(-c3cccc(Cl)c3)n2)nc1)NCCO [Example 215, 2-(6-((2-(3-Chlorophenyl)-6-cyclopropylpyrimidin-4-yl)amino)pyridin-3-yl)-N-(2-hydroxyethyl)acetamide]	> 6.00
FC(F)(F)c1cc(Cc2ccc(Cn3cc(Cl)cn3)cc2)nc(-c2cccc(Cl)c2)n1 [Example 218, 4-(4-((4-Chloro-1H-pyrazol-1-yl)methyl)benzyl)-2-(3-chlorophenyl)-6-(trifluoromethyl)pyrimidine]	> 6.00
NC(=O)Cc1ccc(Nc2nc(-c3cccc(Cl)c3)nc3c2CCCC3)cc1 [Example 234, 2-(4-((2-(3-Chlorophenyl)-5,6,7,8-tetrahydroquinazolin-4-yl)amino)phenyl)acetamide]	> 6.00
CCc1cc(Cc2ccc(CCO)cc2)nc(-c2cccc(Cl)c2)n1 [Example 67, 2-(4-((2-(3-Chlorophenyl)-6-ethylpyrimidin-4-yl)methyl)phenyl)ethanol]	> 6.00
OCC(O)c1ccc(Nc2cc(-c3cccc(Cl)c3)nc3c2CCC3)cc1 (stereo not shown) [Example 115, 1-(4-((2-(3-Chlorophenyl)-6,7-dihydro-5H-cyclopenta[b]pyridin-4-yl)amino)phenyl)ethane-1,2-diol hydrochloride]	> 6.00
CCc1nc(Nc2ccc(CC(=O)O)cc2)nc(-c2cccc(Cl)c2)n1 [Example 39, 2-(4-((4-(3-chlorophenyl)-6-ethyl-1,3,5-triazin-2-yl)amino)phenyl)acetic acid]	> 6.00

The next lines start with the values.

pIC50	Structure (SMILES)
> 6.00	CCc1c(C)nc(-c2ccc(Cl)s2)nc1Nc1ccc(B(O)O)cc1 [Example 292, [4-[[2-(5-Chloro-2-thienyl)-5-ethyl-6-methyl-pyrimidin-4-yl]amino]phenyl]boronic acid]
> 6.00	CCc1c(C)nc(-c2ccc(Cl)s2)nc1Nc1ccc(CC(=O)NC)cc1 [Example 308, 2-[4-[[2-(5-Chloro-2-thienyl)-5-ethyl-6-methyl-pyrimidin-4-yl]amino]phenyl]-N-methyl-acetamide]
< 6.00	O=C(O)Cc1ccc(Nc2cc(C(F)(F)F)nc(-c3ccc(Cl)s3)n2)cc1 [Example 296, 2-[4-[[2-(5-Chloro-2-thienyl)-6-(trifluoromethyl)pyrimidin-4-yl]amino]phenyl]acetic acid]
< 6.00	CCc1c(C)nc(-c2ccc(Cl)s2)nc1Nc1ccc(Cc2nc(C(N)=O)c[nH]2)cc1 [Example 310, 2-[[4-[[2-(5-Chloro-2-thienyl)-5-ethyl-6-methyl-pyrimidin-4-yl]amino]phenyl]methyl]-1H-imidazole-4-carboxamide]
> 6.00	CCc1c(C)nc(-c2ccc(Cl)s2)nc1Nc1ccc(CC(=O)NC#N)cc1 [Example 301, 2-[4-[[2-(5-Chloro-2-thienyl)-5-ethyl-6-methyl-pyrimidin-4-yl]amino]phenyl]-N-cyano-acetamide]
< 6.00	CCc1c(C)nc(-c2ccc(Cl)s2)nc1Nc1ccc(C2=C(O)CCC2=O)cc1 [Example 303, 2-[4-[[2-(5-Chloro-2-thienyl)-5-ethyl-6-methyl-pyrimidin-4-yl]amino]phenyl]-3-hydroxy-cyclopent-2-en-1-one]
> 6.00	CCc1c(C)nc(-c2ccc(Cl)s2)nc1Nc1ccc(Cc2nc(C(=O)OC)c[nH]2)cc1 [Example 305, Methyl 2-[[4-[[2-(5-chloro-2-thienyl)-5-ethyl-6-methyl-pyrimidin-4-yl]amino]phenyl]methyl]-1H-imidazole-4-carboxylate]
> 6.00	CCc1c(C)nc(-c2ccc(Cl)s2)nc1Nc1ccc(CS(C)(=O)=O)cc1 [Example 317, 2-(5-chloro-2-thienyl)-5-ethyl-6-methyl-N-[4-(methylsulfonylmethyl)phenyl]pyrimidin-4-amine]
> 6.00	CCc1c(C)nc(-c2ccc(Cl)s2)nc1Nc1ccc(Cn2nccn2)cc1 [Example 300]
< 6.00	CCc1c(C)nc(-c2ccc(Cl)s2)nc1NCc1ccc(B(O)O)cc1 [Example 311, [4-[[[2-(5-Chloro-2-thienyl)-5-ethyl-6-methyl-pyrimidin-4-yl]amino]methyl]phenyl]boronic acid]
> 6.00	CCCNC(=O)Cc1ccc(Nc2nc(-c3ccc(Cl)s3)nc(C)c2CC)cc1 [Example 307, 2-[4-[[2-(5-Chloro-2-thienyl)-5-ethyl-6-methyl-pyrimidin-4-yl]amino]phenyl]-N-propyl-acetamide]
> 6.00	CCc1c(C)nc(-c2ccc(Cl)s2)nc1Nc1ccc2c(c1)COB2O [Example 71, 2-(5-chloro-2-thienyl)-5-ethyl-N-(1-hydroxy-3H-2,1-benzoxaborol-5-yl)-6-methyl-pyrimidin-4-amine]
< 6.00	O=C(O)Cc1ccc(Nc2nc(-c3ccc(Cl)s3)nc(C3CC3)n2)cc1 [Example 34, 2-(4-(4-(5-chlorothiophen-2-yl)-6-cyclopropyl-1,3,5-triazin-2-ylamino)phenyl)acetic acid]

pIC50: −log10 of the molar value. Where a name gives a salt, the structure may show the parent alone.
